Data reported in PubChem BioAssay AID1159614 (National Center for Advancing Translational Sciences (NCATS), 2016).
This is a selection; strong and weak results do not stand in their true shares. Activity calls are given as the source filed them. Calls come from the whole dose curve; as a rule, active = well fitted activation curve with a large enough effect; inconclusive = small, poorly fitted or top-dose-only effect; inactive = no such curve, though single readings can be large or run the other way.

Chains of the proteins cited; added tags and fusions are not shown.
UniProt P54803, whole entry G286D: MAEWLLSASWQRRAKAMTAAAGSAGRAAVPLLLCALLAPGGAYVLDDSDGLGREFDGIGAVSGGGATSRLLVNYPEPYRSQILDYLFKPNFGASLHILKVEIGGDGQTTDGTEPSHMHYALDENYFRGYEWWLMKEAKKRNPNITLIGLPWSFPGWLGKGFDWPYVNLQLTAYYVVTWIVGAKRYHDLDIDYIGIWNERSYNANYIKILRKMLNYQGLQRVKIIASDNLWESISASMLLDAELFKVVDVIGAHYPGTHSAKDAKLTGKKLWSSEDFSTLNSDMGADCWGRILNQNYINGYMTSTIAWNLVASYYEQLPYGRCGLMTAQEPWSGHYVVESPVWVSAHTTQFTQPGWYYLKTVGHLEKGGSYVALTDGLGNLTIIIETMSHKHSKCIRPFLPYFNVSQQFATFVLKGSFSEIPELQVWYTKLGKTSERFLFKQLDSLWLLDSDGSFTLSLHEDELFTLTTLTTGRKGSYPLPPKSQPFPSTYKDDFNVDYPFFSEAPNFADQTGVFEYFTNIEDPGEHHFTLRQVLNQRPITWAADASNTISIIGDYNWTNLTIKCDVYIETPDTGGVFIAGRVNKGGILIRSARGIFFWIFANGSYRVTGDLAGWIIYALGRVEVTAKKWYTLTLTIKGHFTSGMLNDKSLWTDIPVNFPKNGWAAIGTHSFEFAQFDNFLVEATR

target: Galactocerebrosidase (Homo sapiens) (UniProt P54803); test: A Novel Cell-Based Assay to Identify Small Molecules for B -Galactocerebrosidase; conditions: 145M-Twi-hGALC-G270D cells (Twitcher mouse brain line with human GALC G270D), HMU-beta-Gal fluorescence, 48 h; at 114 µM (top of the series) unless noted; note: 0% is about no effect; nearly all actives have a fitted effect of over 65% in size

| Structure (SMILES) | activation |
| --- | --- |
| CN(CCCl)CCCl | inactive: -13.7% [at 57.5 µM] |
| CCC(=O)N(c1ccccc1)C1(COC)CCN(CCc2cccs2)CC1 | inactive: -11.1% |
| CCC(=O)N(c1ccccc1)C1(COC)CCN(CCn2nnn(CC)c2=O)CC1 | inactive: -6.93% |
